From BindingDB's records for doi:10.1021/jm701265n (Industrial Research, 2008)

Sequences of proteins named here, by UniProt entry; tags and fusion partners are left off. A change or cut given only in a name is not applied to a line headed by its entry.
UniProt P0AF12: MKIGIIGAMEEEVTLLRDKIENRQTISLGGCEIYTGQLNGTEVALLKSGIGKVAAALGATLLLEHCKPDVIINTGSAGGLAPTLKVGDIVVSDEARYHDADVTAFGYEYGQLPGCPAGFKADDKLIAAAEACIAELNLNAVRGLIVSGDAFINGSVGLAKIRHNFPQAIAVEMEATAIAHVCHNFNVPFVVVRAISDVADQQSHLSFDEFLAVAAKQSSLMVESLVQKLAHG

Target: 5'-methylthioadenosine/S-adenosylhomocysteine nucleosidase (Escherichia coli (strain K12), UniProt P0AF12)
Experiment: MTAP/MTAN Inhibition Assay
Details: pH 7; 22 °C

## CSC[C@H]1CN(Cc2c[nH]c3c(N)ncnc23)C[C@@H]1O [DADMe-ImmA-Me]
  Ki: 0.048 nM
